Reference: ChEMBL document CHEMBL1138730, “The synthesis and evaluation of [2.2.1]-bicycloazahydantoins as androgen receptor antagonists” (Bioorg Med Chem Lett, 2004)

The chains behind the UniProt entries cited, without tags or fusion partners. Where a name states a change or a piece, a line headed by the entry shows the natural chain unless it says otherwise.
UniProt P10275: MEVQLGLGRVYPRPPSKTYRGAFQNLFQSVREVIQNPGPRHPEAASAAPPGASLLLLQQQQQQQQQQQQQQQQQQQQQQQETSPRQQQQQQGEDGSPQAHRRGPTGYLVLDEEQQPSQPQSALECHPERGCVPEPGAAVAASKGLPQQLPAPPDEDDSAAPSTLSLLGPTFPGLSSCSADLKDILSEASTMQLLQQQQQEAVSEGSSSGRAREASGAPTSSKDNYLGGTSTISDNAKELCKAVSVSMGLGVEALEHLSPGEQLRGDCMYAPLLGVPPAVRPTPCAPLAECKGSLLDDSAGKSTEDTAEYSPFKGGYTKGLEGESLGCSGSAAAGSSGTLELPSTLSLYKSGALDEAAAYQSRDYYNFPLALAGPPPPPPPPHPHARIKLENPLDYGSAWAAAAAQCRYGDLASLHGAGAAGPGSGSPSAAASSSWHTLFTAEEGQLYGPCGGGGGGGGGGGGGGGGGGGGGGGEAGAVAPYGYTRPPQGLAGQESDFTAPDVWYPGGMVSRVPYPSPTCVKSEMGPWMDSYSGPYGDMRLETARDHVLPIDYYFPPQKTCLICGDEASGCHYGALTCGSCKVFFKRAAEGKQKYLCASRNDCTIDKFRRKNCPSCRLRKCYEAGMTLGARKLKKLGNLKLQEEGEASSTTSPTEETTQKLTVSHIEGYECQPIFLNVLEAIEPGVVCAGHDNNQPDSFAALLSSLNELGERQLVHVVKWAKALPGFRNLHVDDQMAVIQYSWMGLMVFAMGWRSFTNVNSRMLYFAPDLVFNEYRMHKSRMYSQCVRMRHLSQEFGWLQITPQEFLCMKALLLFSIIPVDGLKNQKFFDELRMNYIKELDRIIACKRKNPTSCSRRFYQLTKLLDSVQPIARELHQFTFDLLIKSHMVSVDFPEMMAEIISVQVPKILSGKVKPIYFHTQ

Target: Androgen receptor (Homo sapiens, UniProt P10275)
Experiment: Displacement of [3H]DHT from androgen receptor of human MDA-453 cells

Work on `CC(C)(C)OC(=O)N1C[C@@H]2C[C@H]1[C@H]1C(=O)N(c3ccc([N+](=O)[O-])c4ccccc34)C(=O)N21` yielded a Ki of 1030 nM.
